The entries are a selection whose mix differs from that of the whole data set. Activity calls are given as the source filed them.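 The calls were made as follows: active = inhibition of at least 40% at 10 µM in the primary screen; inactive = the rest.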
test system: intestinal alkaline phosphatase [Mus musculus]; assay: mouse intestinal phosphatase enzyme inhibition – biochemical, luminescence, uHTS, primary screen (AID 2806); conditions: purified mouse IAP, CDP-Star luminescence, 30 min; at 10 µM; stronger effect = higher value;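 also: plate controls were DMSO with enzyme for no effect and no enzyme wells for full effect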

SMILES | inhibition
CP(=O)(Nc1ccc(SC(F)(F)F)cc1)Oc1ccccc1 (configuration not stated) | inactive: -3%
O=C(O)c1cccc(Nc2c([N+](=O)[O-])cc([N+](=O)[O-])cc2[N+](=O)[O-])c1 | inactive: 1.1%
CC1=NCCc2c1[nH]c1ccccc21.O=[N+]([O-])c1cc([N+](=O)[O-])c(O)c([N+](=O)[O-])c1 | inactive: 14.9%
COc1ccccc1OP(C)(=O)Nc1cccc(Br)c1 (configuration not stated) | inactive: 4.8%
Cc1cc(C)cc(OP(C)(=O)Nc2ccc(C)cc2C)c1 (configuration not stated) | inactive: -6.6%
CCOC(=O)c1ccc(NP(C)(=O)Oc2cc(C)cc(C)c2)cc1 (configuration not stated) | inactive: 18.5%
Cc1cc(C)cc(OP(C)(=O)Nc2ccccn2)c1 (configuration not stated) | inactive: 8.7%
CP(=O)(Nc1cccc(Br)c1)Oc1ccccc1 (configuration not stated) | inactive: -20.2%
Cc1ccc(C)c(NP(C)(=O)Oc2ccccc2)c1 (configuration not stated) | inactive: 3.5%
CCN(CC)CCCOC(=O)C(O)(c1ccccc1)c1ccccc1 | inactive: 4%
O=[N+]([O-])c1cc([N+](=O)[O-])c(Nc2cccnc2)c([N+](=O)[O-])c1 | inactive: 32%
Cc1cccc(C)c1OP(C)(N)=O (configuration not stated) | inactive: 3.1%
CC(C)(C)c1ccc(OP(C)(=O)Nc2ccc(SC(F)(F)F)cc2)cc1 (configuration not stated) | inactive: -5.3%
CCOC(=O)c1ccc(NP(C)(=O)Oc2ccccc2)cc1 (configuration not stated) | inactive: 2.9%
Cc1ccc(NP(C)(=O)Oc2ccccc2)c(C)c1 (configuration not stated) | inactive: -3.9%
COc1ccccc1OP(C)(=O)Nc1ccc(C)cc1 (configuration not stated) | inactive: 5.4%

SMILES | inhibition
COc1ccc(OP(C)(=O)Nc2cccc(F)c2)cc1 (configuration not stated) | inactive: 3.5%
COc1ccccc1OP(C)(=O)Nc1cc(Cl)ccc1C (configuration not stated) | inactive: 8.7%
Cc1cc(C)cc(OP(C)(N)=O)c1 (configuration not stated) | inactive: -13.5%
CP(=S)(Nn1cnnc1)Oc1ccccc1 (configuration not stated) | inactive: -4.6%
COc1ccccc1OP(C)(=O)Nc1ccccc1 (configuration not stated) | inactive: -11%
CP(=O)(Nc1ccccc1Br)Oc1ccccc1 (configuration not stated) | inactive: -2%
CP(=O)(Oc1ccccc1)OC(c1ccccc1)C(F)(F)F (configuration not stated) | inactive: 6%
Cc1cccc(C)c1OP(C)(=O)Nc1ccc(SC(F)(F)F)cc1 (configuration not stated) | inactive: -16.4%
CP(=O)(Nc1ccc(SC(F)(F)F)cc1)Oc1ccc(Cl)cc1 (configuration not stated) | inactive: 0.8%
Cc1cc(C)cc(OP(C)(=O)Nc2ccc(SC(F)(F)F)cc2)c1 (configuration not stated) | inactive: 4.5%
CP(=O)(NC(=O)Nc1ccccc1)Oc1ccccc1 (configuration not stated) | inactive: -8.3%
CCc1ccc(OP(C)(=O)N2CCN(c3ccc([N+](=O)[O-])cc3)CC2)cc1 (configuration not stated) | inactive: 4.6%
CCOP(C)(=S)SCC(=O)NC(C)C(=O)O (configuration not stated) | inactive: 2.6%
CCOC(=O)c1ccc(NP(C)(=O)Oc2ccc(OC)cc2)cc1 (configuration not stated) | inactive: 5.3%
O=[N+]([O-])c1cc([N+](=O)[O-])c(O)c([N+](=O)[O-])c1.c1ccc(Oc2ccncc2)cc1 | inactive: -15.4%
CP(=O)(Nc1ccccn1)Oc1ccc(Cl)cc1 (configuration not stated) | inactive: -2.2%

— PubChem BioAssay AID2806 (Sanford-Burnham Center for Chemical Genomics, 2010)
